Amino acid sequences for entries named in this document (tags omitted). A change or cut given only in a name is not applied to a line headed by its entry.
UniProt P28335: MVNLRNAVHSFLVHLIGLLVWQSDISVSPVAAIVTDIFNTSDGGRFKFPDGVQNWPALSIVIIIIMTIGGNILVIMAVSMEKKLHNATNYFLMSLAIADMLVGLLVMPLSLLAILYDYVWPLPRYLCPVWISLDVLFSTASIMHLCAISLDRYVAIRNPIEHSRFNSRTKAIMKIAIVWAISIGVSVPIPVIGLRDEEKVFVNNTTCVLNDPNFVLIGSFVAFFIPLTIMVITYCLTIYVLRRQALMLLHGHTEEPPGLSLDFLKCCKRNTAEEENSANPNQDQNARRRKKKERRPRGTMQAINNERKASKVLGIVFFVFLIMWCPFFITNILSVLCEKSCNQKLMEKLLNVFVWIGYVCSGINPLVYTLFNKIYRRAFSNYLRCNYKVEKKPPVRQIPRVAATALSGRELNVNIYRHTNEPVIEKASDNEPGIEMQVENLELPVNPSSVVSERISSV
UniProt P28223, whole entry: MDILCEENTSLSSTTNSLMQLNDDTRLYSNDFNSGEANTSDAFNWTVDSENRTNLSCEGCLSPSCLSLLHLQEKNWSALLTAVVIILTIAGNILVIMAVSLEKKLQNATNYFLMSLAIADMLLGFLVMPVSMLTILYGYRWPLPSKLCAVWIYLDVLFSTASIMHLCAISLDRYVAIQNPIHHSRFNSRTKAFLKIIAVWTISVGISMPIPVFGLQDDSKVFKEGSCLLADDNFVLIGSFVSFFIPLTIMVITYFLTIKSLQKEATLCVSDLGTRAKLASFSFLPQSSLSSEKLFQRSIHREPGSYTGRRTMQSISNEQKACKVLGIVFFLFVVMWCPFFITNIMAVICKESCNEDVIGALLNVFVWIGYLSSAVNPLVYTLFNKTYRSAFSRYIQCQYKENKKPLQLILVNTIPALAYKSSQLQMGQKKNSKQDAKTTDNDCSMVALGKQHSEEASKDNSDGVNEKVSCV

According to ChEMBL document CHEMBL3751661, “The influence of 5-HT(2A) activity on a 5-HT(2C) specific in vivo assay used for early identification of multiple acting SERT and 5-HT(2C) receptor ligands” (Bioorg Med Chem Lett, 2016):

What was measured:
[1] = molecular target: 5-hydroxytryptamine receptor 2C (Homo sapiens, UniProt P28335); experiment: Binding affinity to 5HT2C (unknown origin)
[2] = molecular target: 5-hydroxytryptamine receptor 2A (Homo sapiens, UniProt P28223); experiment: Binding affinity to 5HT2A (unknown origin)

## Clc1cccc(N2CCNCC2)c1 [CHLOROPHENYLPIPERAZINE]
[1]
  Ki: 27.7 nM
[2]
  Ki: 273 nM
